Like-named read-outs stand apart in the source and are kept apart here.
Molecular target: JNK3 (Homo sapiens, UniProt P53779)
Assay: In vitro JNK3 inhibitory activity assay
Settings: read-out: JNK3 inhibitory activity (IC50), class symbols
[1] = Table 6, imidazo[2,1-b]thiazole-based covalent inhibitors
[2] = Table 3, imidazo[2,1-b]oxazole derivatives
[3] = Table 1, imidazo[2,1-b]thiazole derivatives
[4] = Table 2, imidazo[2,1-b]thiazole derivatives
[5] = Table 5, imidazo[2,1-b]oxazole derivatives

Amino acid sequences for entries named in this document (tags omitted).
UniProt P53779, whole entry: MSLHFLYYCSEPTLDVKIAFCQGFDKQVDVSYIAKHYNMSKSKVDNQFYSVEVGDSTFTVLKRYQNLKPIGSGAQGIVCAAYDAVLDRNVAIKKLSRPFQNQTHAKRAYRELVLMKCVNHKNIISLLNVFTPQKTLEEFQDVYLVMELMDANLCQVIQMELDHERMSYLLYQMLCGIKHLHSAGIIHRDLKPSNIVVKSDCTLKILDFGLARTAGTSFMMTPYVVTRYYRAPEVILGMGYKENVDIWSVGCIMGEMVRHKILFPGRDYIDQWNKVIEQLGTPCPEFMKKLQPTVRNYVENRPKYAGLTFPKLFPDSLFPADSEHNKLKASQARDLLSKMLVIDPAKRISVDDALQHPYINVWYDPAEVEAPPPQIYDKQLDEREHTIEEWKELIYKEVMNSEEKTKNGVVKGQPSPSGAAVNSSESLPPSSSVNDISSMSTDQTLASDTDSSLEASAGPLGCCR

`CN(C)/C=C/C(=O)c1cn2c(-c3ccnc(NC4CCOCC4)n3)c(-c3ccc(F)c(Cl)c3)nc2s1` was tested, and the IC50 [1] was < 1 nM.

With `CCOC(=O)c1cn2c(-c3ccnc(N[C@H]4CCCN(C(=O)C5CC5)C4)n3)c(-c3ccc4ccccc4c3)nc2o1` the IC50 [2] was 1 to 30 nM.

With `CCOC(=O)c1cn2c(-c3ccnc(N[C@H]4CCCN(C(=O)C5CC5)C4)n3)c(-c3ccc(Cl)c(Cl)c3)nc2s1` the IC50 [3] was 30 to 1000 nM.

With `NC(=O)c1cn2c(-c3ccnc(N[C@H]4CCCN(C(=O)C5CC5)C4)n3)c(-c3ccc(Cl)c(Cl)c3)nc2s1` the IC50 [3] was 30 to 1000 nM.

With `C=CC(=O)Nc1cn2c(-c3ccnc(NC4CCCCC4)n3)c(-c3ccc(F)c(Cl)c3)nc2s1` the IC50 [1] was 1 to 30 nM.

Work on `C=CC(=O)c1cn2c(-c3ccnc(NC4CCCCC4)n3)c(-c3ccc4ccccc4c3)nc2o1` yielded an IC50 (Table 7, imidazo[2,1-b]oxazole-based covalent inhibitors) of 1 to 30 nM.

`CNC(=O)c1cn2c(-c3ccnc(NC4CCN(C(=O)C5CC5)CC4)n3)c(-c3ccc4ccccc4c3)nc2o1` was tested, and the IC50 (Table 4, imidazo[2,1-b]oxazole derivatives) was 1 to 30 nM.

With `NC(=O)c1cn2c(-c3ccnc(N[C@@H]4CCCN(C(=O)C5CC5)C4)n3)c(-c3ccc(F)c(Cl)c3)nc2o1` the IC50 [2] was < 1 nM.

In the case of `NC(=O)c1cn2c(-c3ccnc(NCC4CC4)n3)c(-c3ccc4ccccc4c3)nc2s1`, the IC50 [4] is reported as > 10000 nM.

In the case of `CCOC(=O)c1cn2c(-c3ccnc(NC4CCCCC4)n3)c(-c3ccc(F)c(Cl)c3)nc2s1`, the IC50 [4] is reported as 1 to 30 nM.

Compound `CNC(=O)c1cn2c(-c3ccnc(N[C@@H]4CCCN(C(=O)C5CC5)C4)n3)c(-c3ccc(F)c(C(F)(F)F)c3)nc2s1` has an IC50 [3] of 1 to 30 nM.

In the case of `C=CC(=O)Nc1cn2c(-c3ccnc(NC4CCCCC4)n3)c(-c3ccc4ccccc4c3)nc2s1`, the IC50 [1] is reported as < 1 nM.

`CNC(=O)c1cn2c(-c3ccnc(N[C@@H]4CCCN(C(=O)C5CC5)C4)n3)c(-c3ccc(Cl)c(Cl)c3)nc2s1` gave an IC50 [3] of 1 to 30 nM.

In the case of `CCOC(=O)c1cn2c(-c3ccnc(NCC4CC4)n3)c(-c3ccc4ccccc4c3)nc2s1`, the IC50 [4] is reported as 30 to 1000 nM.

With `CCOC(=O)c1cn2c(-c3ccnc(N[C@@H]4CCCN(C(=O)N(C)C)C4)n3)c(-c3ccc4c(c3)OCCO4)nc2s1` the IC50 [3] was < 1 nM.

`CCOC(=O)c1cn2c(-c3ccnc(NC4CCCCC4)n3)c(-c3ccc4c(c3)OCCO4)nc2o1` was tested, and the IC50 [5] was 1 to 30 nM.

Work on `CNC(=O)c1cn2c(-c3ccnc(NC4CCOCC4)n3)c(-c3ccc4ccccc4c3)nc2o1` yielded an IC50 [5] of 1 to 30 nM.

`CN(C)/C=C/C(=O)c1cn2c(-c3ccnc(NC4CCOCC4)n3)c(-c3ccc4ccccc4c3)nc2s1` was tested, and the IC50 [1] was 1 to 30 nM.

In the case of `CCOC(=O)c1cn2c(-c3ccnc(NC4CCOCC4)n3)c(-c3ccc(F)c(Cl)c3)nc2o1`, the IC50 [5] is reported as < 1 nM.

Compound `CNC(=O)c1cn2c(-c3ccnc(N[C@H]4CCCN(C(=O)C5CC5)C4)n3)c(-c3ccc4ccccc4c3)nc2s1` has an IC50 [3] of 30 to 1000 nM.

Compound `CNC(=O)c1cn2c(-c3ccnc(N[C@@H]4CCCN(C(=O)C5CC5)C4)n3)c(-c3ccc4c(c3)OCCO4)nc2s1` has an IC50 [3] of 1 to 30 nM.

With `NC(=O)c1cn2c(-c3ccnc(NC4CCCCC4)n3)c(-c3ccc(F)c(Cl)c3)nc2o1` the IC50 [5] was < 1 nM.

`NC(=O)c1cn2c(-c3ccnc(N[C@@H]4CCCN(C(=O)C5CC5)C4)n3)c(-c3ccc4c(c3)OCCO4)nc2s1` gave an IC50 [3] of 1 to 30 nM.

`COCCNc1nccc(-c2c(-c3ccc4ccccc4c3)nc3sc(C(N)=O)cn23)n1` was tested, and the IC50 [4] was 30 to 1000 nM.

With `CNC(=O)c1cn2c(-c3ccnc(N[C@H]4CCCN(C(=O)N(C)C)C4)n3)c(-c3ccc(Cl)c(Cl)c3)nc2o1` the IC50 [2] was < 1 nM.

In the case of `C=CC(=O)Nc1cn2c(-c3ccnc(NC4CCOCC4)n3)c(-c3ccc4ccccc4c3)nc2s1`, the IC50 [1] is reported as < 1 nM.

Compound `CNC(=O)c1cn2c(-c3ccnc(NC4CCCCC4)n3)c(-c3ccc4c(c3)OCCO4)nc2o1` has an IC50 [5] of 1 to 30 nM.

`CNC(=O)c1cn2c(-c3ccnc(N[C@H]4CCCN(C(=O)N(C)C)C4)n3)c(-c3ccc4c(c3)OCCO4)nc2s1` showed an IC50 [3] of 30 to 1000 nM.

`C=CC(=O)c1cn2c(-c3ccnc(NC4CCOCC4)n3)c(-c3ccc4ccccc4c3)nc2s1` gave an IC50 [1] of 1 to 30 nM.

With `CCOC(=O)c1cn2c(-c3ccnc(N[C@H]4CCCN(C(=O)N(C)C)C4)n3)c(-c3ccc(Cl)c(Cl)c3)nc2o1` the IC50 [2] was 1 to 30 nM.

`CCOC(=O)c1cn2c(-c3ccnc(N[C@@H]4CCCN(C(=O)C5CC5)C4)n3)c(-c3ccc4ccccc4c3)nc2o1` was tested, and the IC50 [2] was 1 to 30 nM.

`CNC(=O)c1cn2c(-c3ccnc(N[C@H]4CCCN(C(=O)C5CC5)C4)n3)c(-c3ccc4c(c3)OCCO4)nc2o1` was tested, and the IC50 [2] was < 1 nM.
